# Measurements from patent publication US10670609B2, “Ytterbium as a surrogate cation to measure calcium flux” (Government of the United States, as represented by the …, priority 2017, dated 2020).
# Assay: Solubility observations during preparation
# Settings: about 50° C. to about 70° C.; water as solvent for some tests
substance,measurement,value
ytterbium (II) iodide,"solubility, effect of cyclodextrin inclusion and heating",increased
